Read-outs that look alike come from different tables or passages of the source.
Target: T1, RORγ ligand-binding domain fused to Gal4 (Homo sapiens, UniProt P51449)
T1 construct: Gal4 (galactose-responsive transcription factor); expressed in transfected cells; host or cells: HEK293
Assay: RORγ Reporter Assay (Gal4)
Format: cell-based
Procedure: The HEK293 cell line is co-transfected transiently with two plasmids, one with the RORγ ligand-binding domain fused to galactose-responsive transcription factor (Gal4), and the other with the luciferase reporter gene and Gal binding sites (UAS). This construction allows to determine the RORγ activity in a cellular system through the measurement of luminescence.
A suspension of RORγ reporter cells was dispensed into plates and cultured 2 h at 37° C. and 5% CO2. Media formulation consisted in DMEM/F-12 medium (Gibco) supplemented with 10% heat inactivated FBS (Sigma-Aldrich), non-essential aminoacids (Sigma-Aldrich), 2 mM Glutamax (Gibco) and 100 U/mL penicillin (Sigma-Aldrich). Dose-response curves with compounds were prepared in 100% DMSO and further diluted 100-fold in culture medium. Compound solutions were added to the plate containing cells (final DMSO concentration of 0.1%) and incubated for 24 h at 37° C. and 5% CO2. Luciferase detection reagent was added to each well, and relative light units (RLUs) were quantified from each assay well using a plate reading luminometer.
Values of average RLU±S.D. were computed for all treatment sets, followed by the calculations of percent-reduction of RORγ activity in response to respective test compound. The following formula was used: activity=100*[1−[x test compound/average vehicle] where the theoretical minimum reduction (0% reduction).

Sequences of proteins named here, by UniProt entry; tags and fusion partners are left off. Residues count along the entry.
UniProt P51449, 269-508 limits assumed: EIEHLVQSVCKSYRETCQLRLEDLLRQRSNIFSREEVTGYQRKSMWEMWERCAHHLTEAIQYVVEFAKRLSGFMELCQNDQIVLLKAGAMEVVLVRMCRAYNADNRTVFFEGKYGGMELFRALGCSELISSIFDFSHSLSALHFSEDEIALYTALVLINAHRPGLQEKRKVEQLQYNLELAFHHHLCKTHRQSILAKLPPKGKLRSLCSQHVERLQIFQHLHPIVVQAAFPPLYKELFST

[1] = HEK293 cells co-transfected with RORγ LBD-Gal4 and luciferase reporter, 24 h incubation, absolute EC50, read-out: EC50

| EC50 [1] [nM] | EC50 (compounds of the present disclosure, source: Table 2 herein, read-out: Gal4 assay EC50) [nM] | Compound |
| --- | --- | --- |
| 27 | – | CC1(N(Cc2ccc(C(F)(F)F)cc2)c2ncnc(NC[C@@H]3CCN(CC(N)=O)C[C@H]3O)c2F)CC1 (racemic) [Example A7-41, rac-2-((3R,4R)-4-(((5-fluoro-6-((1-methylcyclopropyl)(4-(trifluoromethyl)benzyl)amino)pyrimidin-4-yl)amino)methyl)-3-hydroxypiperidin-1-yl)acetamide] |
| – | < 100 | NC(=O)CN1CCC(CNc2ncnc(N(Cc3ccc(C(F)(F)F)cc3)C3CC3)c2F)C(F)(F)C1 (single isomer, unassigned) [Example A7-06-2] |
| 21 | – | NC(=O)CN1CCC(CNc2ncnc(N(Cc3ccc(C(F)(F)F)cc3)C3CC3)c2F)C(C(F)(F)F)C1 (single isomer, unassigned) [Example A7-07-3, 2-(4-(((6-(cyclopropyl(4-(trifluoromethyl)benzyl)amino)-5-fluoropyrimidin-4-yl)amino)methyl)-3-(trifluoromethyl)piperidin-1-yl)acetamide] |
| 27 | – | CCN(Cc1ccc(C(F)(F)F)cc1F)c1ncnc(NC[C@@H]2CCN(CC(N)=O)C[C@H]2O)c1F (single isomer, unassigned) [Example A7-26-1] |

Reference: US12441704B2, “Compounds active towards nuclear receptors” (NUEVOLUTION A/S, priority 2019, dated 2025)
